The values below are quoted from earlier work in patent publication US4866036A, “Dipeptidyl 5-0,6-0-acyl-2-amino-2-deoxy-D-glucofuranose compositions and methods of use in aids-immunocompromised human hosts” (priority 1987, dated 1989).

For this series the following is noted: human, in vivo.

For “IL-2: Protein made by white blood cells that mediates production of interferon”, the “clinical effect in AIDS or ARC patients” value is on record as “not encouraging”.
